The NIST ThermoML archive (doi:10.1016/j.fluid.2019.02.028)

Assay: xn = mol fraction of the nth substance listed
Conditions: Liquid, Vibrating tube method

CCCCOCCCC [dibutyl ether] + CCCCCCC
mass density [kg/m3]
Conditions | 298.15 K | 313.15 K | 333.15 K | 353.15 K | 373.15 K | 393.15 K
100 kPa, x1 = 0.325 | 724.4 | 711.3 | 693.6 | 675.6 | – | –
100 kPa, x1 = 0.5 | 738.6 | 725.5 | 707.7 | 689.8 | – | –
100 kPa, x1 = 0.675 | 749.5 | 736.5 | 718.7 | 700.8 | – | –
100 kPa, x1 = 0.85 | 763.8 | 750.7 | 733 | 715 | – | –
1000 kPa, x1 = 0.325 | 725.2 | 712.3 | 694.7 | 676.9 | 658.4 | 639
1000 kPa, x1 = 0.5 | 739.4 | 726.4 | 708.9 | 691 | 672.6 | 653.5
1000 kPa, x1 = 0.675 | 750.4 | 737.4 | 719.9 | 702 | 683.7 | 664.6
1000 kPa, x1 = 0.85 | 764.7 | 751.6 | 734 | 716.2 | 697.9 | 679
5000 kPa, x1 = 0.325 | 728.9 | 716.4 | 699.4 | 682.3 | 664.8 | 646.6
5000 kPa, x1 = 0.5 | 743.1 | 730.5 | 713.5 | 696.3 | 678.7 | 660.8
5000 kPa, x1 = 0.675 | 754 | 741.4 | 724.3 | 707.2 | 689.7 | 671.7
5000 kPa, x1 = 0.85 | 768.2 | 755.6 | 738.5 | 721.3 | 703.8 | 685.9
10000 kPa, x1 = 0.325 | 733.2 | 721.1 | 704.8 | 688.5 | 671.8 | 654.8
10000 kPa, x1 = 0.5 | 747.4 | 735.1 | 718.8 | 702.4 | 685.7 | 668.8
10000 kPa, x1 = 0.675 | 758.2 | 746 | 729.6 | 713.2 | 696.5 | 679.6
10000 kPa, x1 = 0.85 | 772.4 | 760.1 | 743.6 | 727.2 | 710.5 | 693.5
15000 kPa, x1 = 0.325 | 737.3 | 725.5 | 709.9 | 694.1 | 678.3 | 662.2
15000 kPa, x1 = 0.5 | 751.4 | 739.6 | 723.9 | 708 | 692.1 | 676
15000 kPa, x1 = 0.675 | 762.3 | 750.4 | 734.6 | 718.8 | 702.9 | 686.8
15000 kPa, x1 = 0.85 | 776.4 | 764.5 | 748.6 | 732.7 | 716.7 | 700.6
20000 kPa, x1 = 0.325 | 741.1 | 729.8 | 714.6 | 699.4 | 684.3 | 668.9
20000 kPa, x1 = 0.5 | 755.2 | 743.7 | 728.4 | 713.3 | 697.9 | 682.6
20000 kPa, x1 = 0.675 | 766.1 | 754.6 | 739.2 | 723.9 | 708.6 | 693.2
20000 kPa, x1 = 0.85 | 780.2 | 768.6 | 753.1 | 737.8 | 722.4 | 706.9
25000 kPa, x1 = 0.325 | 744.9 | 733.6 | 719 | 704.4 | 689.7 | 675
25000 kPa, x1 = 0.5 | 758.9 | 747.5 | 732.8 | 718.1 | 703.3 | 688.6
25000 kPa, x1 = 0.675 | 769.7 | 758.3 | 743.5 | 728.8 | 714 | 699.2
25000 kPa, x1 = 0.85 | 783.7 | 772.3 | 757.5 | 742.6 | 727.7 | 712.8
30000 kPa, x1 = 0.325 | 748.4 | 737.6 | 723.2 | 709 | 694.9 | 680.6
30000 kPa, x1 = 0.5 | 762.4 | 751.5 | 737 | 722.7 | 708.4 | 694.2
30000 kPa, x1 = 0.675 | 773.2 | 762.2 | 747.7 | 733.3 | 719.1 | 704.7
30000 kPa, x1 = 0.85 | 787.3 | 776.2 | 761.5 | 747.1 | 732.7 | 718.3
35000 kPa, x1 = 0.325 | 751.7 | 741.2 | 727.2 | 713.4 | 699.7 | 686
35000 kPa, x1 = 0.5 | 765.7 | 755.1 | 741 | 727 | 713.2 | 699.5
35000 kPa, x1 = 0.675 | 776.6 | 765.9 | 751.7 | 737.7 | 723.7 | 710
35000 kPa, x1 = 0.85 | 790.6 | 779.7 | 765.5 | 751.4 | 737.4 | 723.5
40000 kPa, x1 = 0.325 | 754.9 | 744.5 | 731 | 717.4 | 704.2 | 690.9
40000 kPa, x1 = 0.5 | 769 | 758.4 | 744.7 | 731.1 | 717.7 | 704.4
40000 kPa, x1 = 0.675 | 779.7 | 769.2 | 755.5 | 741.7 | 728.3 | 714.8
40000 kPa, x1 = 0.85 | 793.8 | 783.1 | 769.2 | 755.4 | 741.9 | 728.3
45000 kPa, x1 = 0.325 | 758.1 | 747.9 | 734.6 | 721.4 | 708.5 | 695.5
45000 kPa, x1 = 0.5 | 772.1 | 761.8 | 748.3 | 735 | 722.1 | 709
45000 kPa, x1 = 0.675 | 782.9 | 772.5 | 759 | 745.6 | 732.6 | 719.4
45000 kPa, x1 = 0.85 | 796.9 | 786.4 | 772.7 | 759.3 | 746.1 | 732.8
50000 kPa, x1 = 0.325 | 761.1 | 751.2 | 738.1 | 725.3 | 712.5 | 699.9
50000 kPa, x1 = 0.5 | 775.1 | 765 | 751.8 | 738.9 | 726.1 | 713.4
50000 kPa, x1 = 0.675 | 785.9 | 775.8 | 762.5 | 749.5 | 736.6 | 723.8
50000 kPa, x1 = 0.85 | 799.8 | 789.7 | 776.2 | 763 | 750 | 737.2
55000 kPa, x1 = 0.325 | 764 | 754.3 | 741.4 | 728.8 | 716.5 | 704.2
55000 kPa, x1 = 0.5 | 778 | 768.2 | 755.1 | 742.4 | 729.9 | 717.6
55000 kPa, x1 = 0.675 | 788.8 | 778.9 | 765.8 | 753 | 740.5 | 728
55000 kPa, x1 = 0.85 | 802.8 | 792.7 | 779.6 | 766.6 | 754 | 741.4
60000 kPa, x1 = 0.325 | 766.8 | 757.3 | 744.6 | 732.3 | 720.2 | 708.2
60000 kPa, x1 = 0.5 | 780.8 | 771.1 | 758.4 | 745.9 | 733.7 | 721.6
60000 kPa, x1 = 0.675 | 791.6 | 781.9 | 769 | 756.5 | 744.2 | 732
60000 kPa, x1 = 0.85 | 805.6 | 795.7 | 782.7 | 770.1 | 757.7 | 745.3
65000 kPa, x1 = 0.325 | 769.6 | 760.1 | 747.8 | 735.7 | 723.8 | 712
65000 kPa, x1 = 0.5 | 783.5 | 774 | 761.5 | 749.3 | 737.2 | 725.3
65000 kPa, x1 = 0.675 | 794.3 | 784.7 | 772.1 | 759.8 | 747.8 | 735.8
65000 kPa, x1 = 0.85 | 808.3 | 798.6 | 785.8 | 773.4 | 761.2 | 749.1
70000 kPa, x1 = 0.325 | 772.3 | 762.9 | 750.7 | 738.9 | 727.2 | 715.7
70000 kPa, x1 = 0.5 | 786.2 | 776.8 | 764.5 | 752.5 | 740.6 | 729.1
70000 kPa, x1 = 0.675 | 797 | 787.5 | 775.1 | 763.1 | 751.2 | 739.5
70000 kPa, x1 = 0.85 | 811 | 801.4 | 788.8 | 776.7 | 764.6 | 752.8
80000 kPa, x1 = 0.325 | 777.3 | 768.3 | 756.5 | 744.9 | 733.8 | 722.7
80000 kPa, x1 = 0.5 | 791.3 | 782.2 | 770.2 | 758.6 | 747.2 | 736.1
80000 kPa, x1 = 0.675 | 802.1 | 792.9 | 780.9 | 769.1 | 757.8 | 746.5
80000 kPa, x1 = 0.85 | 816.1 | 806.7 | 794.6 | 782.7 | 771.2 | 759.7
90000 kPa, x1 = 0.325 | 782.2 | 773.4 | 762 | 750.8 | 739.9 | 729.2
90000 kPa, x1 = 0.5 | 796.2 | 787.3 | 775.7 | 764.4 | 753.4 | 742.6
90000 kPa, x1 = 0.675 | 807 | 798 | 786.3 | 774.9 | 763.9 | 753
90000 kPa, x1 = 0.85 | 821 | 811.9 | 800 | 788.5 | 777.3 | 766.2
100000 kPa, x1 = 0.325 | 786.8 | 778.2 | 767.1 | 756.1 | 745.7 | 735.2
100000 kPa, x1 = 0.5 | 800.8 | 792.1 | 780.8 | 769.8 | 759.1 | 748.6
100000 kPa, x1 = 0.675 | 811.6 | 802.8 | 791.4 | 780.4 | 769.6 | 759
100000 kPa, x1 = 0.85 | 825.5 | 816.7 | 805.2 | 794 | 783 | 772.3
110000 kPa, x1 = 0.325 | 791.2 | 782.8 | 771.9 | 761.4 | 751.1 | 741
110000 kPa, x1 = 0.5 | 805.2 | 796.7 | 785.7 | 775 | 764.6 | 754.4
110000 kPa, x1 = 0.675 | 816 | 807.5 | 796.4 | 785.5 | 775.1 | 764.8
110000 kPa, x1 = 0.85 | 830 | 821.4 | 810 | 799.2 | 788.5 | 778.1
120000 kPa, x1 = 0.325 | 795.3 | 787.2 | 776.5 | 766.2 | 756.2 | 746.2
120000 kPa, x1 = 0.5 | 809.4 | 801.1 | 790.3 | 779.9 | 769.6 | 759.7
120000 kPa, x1 = 0.675 | 820.2 | 811.9 | 801 | 790.4 | 780.2 | 770.1
120000 kPa, x1 = 0.85 | 834.2 | 825.7 | 814.7 | 804 | 793.6 | 783.4
130000 kPa, x1 = 0.325 | 799.3 | 791.5 | 781 | 770.8 | 761.2 | 751.4
130000 kPa, x1 = 0.5 | 813.4 | 805.4 | 794.8 | 784.5 | 774.7 | 764.8
130000 kPa, x1 = 0.675 | 824.2 | 816.1 | 805.5 | 795.1 | 785.1 | 775.3
130000 kPa, x1 = 0.85 | 838.3 | 830.1 | 819.3 | 808.7 | 798.6 | 788.6
140000 kPa, x1 = 0.325 | 803.2 | 795.5 | 785.2 | 775.3 | 765.7 | 756.3
140000 kPa, x1 = 0.5 | 817.3 | 809.4 | 799.1 | 789.1 | 779.3 | 769.9
140000 kPa, x1 = 0.675 | 828.2 | 820.2 | 809.7 | 799.6 | 789.8 | 780.3
140000 kPa, x1 = 0.85 | 842.1 | 834.2 | 823.5 | 813.3 | 803.3 | 793.6
